BindingDB's records for doi:10.1016/s0002-9343(98)00091-6 (Dallas Department of Veterans Affairs Medical Center, 1998)

Protein sequences, listed by entry. Tags and fused reporters are not part of them.
UniProt P23219, whole entry: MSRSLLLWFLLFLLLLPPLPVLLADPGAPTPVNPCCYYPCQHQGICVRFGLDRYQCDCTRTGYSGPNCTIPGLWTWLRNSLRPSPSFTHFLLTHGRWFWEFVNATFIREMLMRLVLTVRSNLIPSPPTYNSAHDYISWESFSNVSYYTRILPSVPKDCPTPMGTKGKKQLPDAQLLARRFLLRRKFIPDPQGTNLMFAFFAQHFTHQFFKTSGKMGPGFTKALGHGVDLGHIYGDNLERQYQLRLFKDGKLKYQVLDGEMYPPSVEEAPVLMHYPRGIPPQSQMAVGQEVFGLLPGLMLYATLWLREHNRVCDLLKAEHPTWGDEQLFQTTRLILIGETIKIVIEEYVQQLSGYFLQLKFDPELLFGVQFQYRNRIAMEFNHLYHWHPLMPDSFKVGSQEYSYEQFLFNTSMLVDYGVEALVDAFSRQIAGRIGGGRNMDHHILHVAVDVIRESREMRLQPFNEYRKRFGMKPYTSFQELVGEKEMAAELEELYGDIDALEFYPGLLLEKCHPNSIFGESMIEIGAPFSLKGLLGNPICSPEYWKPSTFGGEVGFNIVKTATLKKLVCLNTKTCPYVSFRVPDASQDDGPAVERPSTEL

Target: Prostaglandin G/H synthase 1 (Homo sapiens, UniProt P23219)

SMILES	IC50
CC(C(=O)O)c1ccc(-c2ccccc2)c(F)c1 (racemic) [2-(2-fluoro-[1,1'-biphenyl-4-yl])propanoic acid]	410 nM
CN1C(C(=O)Nc2ccccn2)=C(O)c2ccccc2S1(=O)=O [NSC_4856]	2680 nM
